# Assay results: publication PMC6839854, “Inactive USP14 and inactive UCHL5 cause accumulation of distinct ubiquitinated proteins in mammalian cells” (PLoS ONE, 2019)
# Chains of the proteins cited; added tags and fusions are not shown. Lines headed by an entry give the natural chain unless they say otherwise; changes in a name come on top.
# UniProt P54578: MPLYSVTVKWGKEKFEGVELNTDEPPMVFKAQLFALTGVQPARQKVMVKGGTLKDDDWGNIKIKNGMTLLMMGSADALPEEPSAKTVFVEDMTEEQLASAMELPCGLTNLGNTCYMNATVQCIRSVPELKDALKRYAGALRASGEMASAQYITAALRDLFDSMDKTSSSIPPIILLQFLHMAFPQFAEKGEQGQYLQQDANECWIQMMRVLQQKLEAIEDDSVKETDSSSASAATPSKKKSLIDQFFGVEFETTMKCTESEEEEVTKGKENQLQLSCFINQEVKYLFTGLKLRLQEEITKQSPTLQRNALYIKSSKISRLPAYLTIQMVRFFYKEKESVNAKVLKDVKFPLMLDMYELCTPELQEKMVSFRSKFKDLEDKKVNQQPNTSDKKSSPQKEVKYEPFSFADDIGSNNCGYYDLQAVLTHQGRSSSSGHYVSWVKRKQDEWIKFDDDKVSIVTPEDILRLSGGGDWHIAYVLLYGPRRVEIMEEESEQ
# Molecular target: T1, USP14 (Homo sapiens, UniProt P54578)
# T1 construct: Full length USP14; with ubiquitin vinyl sulfone-treated 26S proteasome (26S-VS)
# Assay: ubiquitin-rhodamine […] hydrolysis assay with purified USP14 and Ub-VS-treated […] proteasome
# Format: biochemical
smiles,measurement,value
Cc1cc(C(=O)CN2CCCC2)c(C)n1-c1ccc(F)cc1 [IU1],IC50,5.51 µM
